Data on one compound can be found in paper doi:10.1101/2025.11.20.689572v1 (biorxiv, 2025).

By UniProt entry, the sequences of proteins in these tests, tags left out. Where a name states a change or a piece, a line headed by the entry shows the natural chain unless it says otherwise.
UniProt P11229: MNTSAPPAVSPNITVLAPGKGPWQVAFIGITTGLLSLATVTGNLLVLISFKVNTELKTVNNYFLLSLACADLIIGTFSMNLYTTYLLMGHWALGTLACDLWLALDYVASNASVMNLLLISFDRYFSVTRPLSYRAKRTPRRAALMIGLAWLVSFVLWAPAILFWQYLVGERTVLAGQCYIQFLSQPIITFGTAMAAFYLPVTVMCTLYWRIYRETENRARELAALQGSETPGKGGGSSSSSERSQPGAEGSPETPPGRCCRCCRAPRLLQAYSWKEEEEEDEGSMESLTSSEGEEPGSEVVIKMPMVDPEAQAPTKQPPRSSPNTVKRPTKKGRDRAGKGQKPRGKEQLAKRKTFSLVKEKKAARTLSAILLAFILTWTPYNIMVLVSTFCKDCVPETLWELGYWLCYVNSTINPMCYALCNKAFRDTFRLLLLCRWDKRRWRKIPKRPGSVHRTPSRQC

For the test, the target named is CHRM1 (Homo sapiens, UniProt P11229). The test is described as follows: cell-based. Set-up: TRUPATH BRET2 G-protein dissociation; antagonist mode against agonist EC80. Conditions: HEK293, read-out: Xanomeline, Assay=Gq; agonist mode, % of control agonist.

`CCCCCCOc1nsnc1C1=CCCN(C)C1` [Xanomeline]: the Emax is 101%.
